{"sequences": {"note": "By UniProt entry, the sequences of proteins in these tests, tags left out. Residues count along the entry.", "UniProt P04062, 40-536": "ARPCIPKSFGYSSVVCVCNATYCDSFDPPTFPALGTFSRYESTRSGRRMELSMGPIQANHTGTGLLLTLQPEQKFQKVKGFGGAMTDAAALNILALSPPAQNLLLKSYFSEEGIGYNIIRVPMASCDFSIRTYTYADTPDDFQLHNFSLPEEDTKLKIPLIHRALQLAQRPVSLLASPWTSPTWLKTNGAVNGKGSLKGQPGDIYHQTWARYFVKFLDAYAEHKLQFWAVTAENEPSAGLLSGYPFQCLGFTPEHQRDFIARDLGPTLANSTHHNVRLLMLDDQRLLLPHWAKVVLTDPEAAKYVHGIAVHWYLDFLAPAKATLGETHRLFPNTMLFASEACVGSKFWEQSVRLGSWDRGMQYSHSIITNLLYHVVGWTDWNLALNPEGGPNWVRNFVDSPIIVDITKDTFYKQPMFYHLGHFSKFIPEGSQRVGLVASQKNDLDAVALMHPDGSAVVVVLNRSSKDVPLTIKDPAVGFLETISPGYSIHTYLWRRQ"}, "source": "patent US11826435B2", "about": "“Conduritol aziridine derivatives and uses thereof” (University of Saskatchewan, priority 2017, dated 2023)", "origin": "cited, not measured here", "target": "GCase (Homo sapiens (Human), UniProt P04062)", "settings": "inhibition of GCase, reported data; cited from earlier work"}
{"substance": "N-octyl conduritol aziridine [Compound 1.7]", "values": [{"measurement": "Ki", "value": 5, "unit": "nM"}]}
